Test results taken from ChEMBL document CHEMBL5725934, “Phosphorus-substituted quinoxaline-type piperidine compounds and uses thereof” (2017).

How the values were obtained:
Nociceptin receptor = Nociceptin receptor (Homo sapiens, UniProt P41146); assay: In Vitro ORL-1 Receptor Binding Assay: Radioligand binding assays (screening and dose-displacement) used 0.1 nM [3H]-nociceptin (NEN; 87.7 Ci/mmole) with 10-20 μg membrane protein in a final volume of 500 μL binding buffer (10 mM MgCl2, 1 mM EDTA, 5% DMSO, 50 mM HEPES, pH 7.4). Non-specific binding was determined in the presence of 10 nM unlabeled nociceptin (American Peptide Company). All reactio
[1] = molecular target: Delta-type opioid receptor (Homo sapiens, UniProt P41143); assay: In Vitro Delta-Opioid Receptor Binding Assay: δ-Opioid Receptor Binding Assay Procedures: Radioligand dose-displacement assays used 0.2 nM [3H]-Naltrindole (NEN; 33.0 Ci/mmole) with 10-20 μg membrane protein (recombinant delta opioid receptor expressed in CHO-K1 cells; Perkin Elmer) in a final volume of 500 μL binding buffer (5 mM MgCl2, 5% DMSO, 50 mM Trizma base, pH 7.4). Non-specific binding wa
[2] = molecular target: Kappa-type opioid receptor (Homo sapiens, UniProt P41145); assay: In Vitro Kappa-Opioid Receptor Binding Assay: κ-Opioid Receptor Binding Assay Procedures: Membranes from recombinant HEK-293 cells expressing the human kappa opioid receptor (kappa) (cloned in house) were prepared by lysing cells in ice cold hypotonic buffer (2.5 mM MgCl2, 50 mM HEPES, pH 7.4) (10 mL/10 cm dish) followed by homogenization with a tissue grinder/Teflon pestle. Membranes were collect
Mu-type opioid receptor = Mu-type opioid receptor (Homo sapiens, UniProt P35372); assay: In Vitro Mu-Opioid Receptor Binding Assay: μ-Opioid Receptor Binding Assay Procedures: Radioligand binding assays were conducted using freshly thawed membranes expressing human μ-receptors (Perkin Elmer, Shelton, Conn.). Radioligand dose-displacement binding assays for human μ-opioid receptors used 0.2 nM[3H]-diprenorphine (NEN, Boston, Mass.), with 5-20 mg membrane protein/well in a final volume

Compound | EC50 (Nociceptin receptor) [nM] | Ki (Nociceptin receptor) [nM] | other results
C[C@@H]1C[C@@H]2C[C@H](C1)C[C@H](N1[C@@H]3CCC[C@H]1C[C@@H](n1c(=O)c(P(=O)(O)O)nc4ccccc41)C3)C2 | 2.49 | 1 | Ki [1]: 2040 nM
C[C@@H]1C[C@@H]2C[C@H](C1)C[C@H](N1[C@@H]3CCC[C@H]1C[C@@H](n1c(=O)c(CCP(=O)(O)O)nc4ccccc41)C3)C2 | – | 3.4 | –
CC1(C)[C@H]2CC[C@@H](CCN3[C@@H]4CCC[C@H]3C[C@@H](n3c(=O)c(P(=O)(O)O)nc5ccccc53)C4)[C@@H]1C2 | – | – | EC50 [2]: 20000 nM
O=c1c(P(=O)(O)O)nc2ccccc2n1[C@H]1C[C@H]2CCC[C@@H](C1)N2C1CCCCCCC1 | 174 | – | Ki [2]: 1420 nM
O=c1c(NCCP(=O)(O)O)nc2ccccc2n1[C@H]1C[C@H]2CCC[C@@H](C1)N2[C@H]1C[C@@H]2CCC[C@@H](C2)C1 | 10.8 | 24.1 | –
CC1C[C@@H]2C[C@H](C1)C[C@H](N1[C@@H]3CCC[C@H]1C[C@@H](n1c(=O)c(N4CC=C(P(C)(=O)O)CC4)nc4ccccc41)C3)C2 (stereo partly drawn) | 26.6 | 6.34 | –
CCOP(=O)(OCC)c1nc2ccccc2n([C@H]2C[C@H]3CC[C@@H](C2)N3C23CC4CC(CC2C4)C3)c1=O | 184 | 48.1 | Ki (Mu-type opioid receptor): 429 nM; Ki [2]: 31.5 nM
C[C@@H]1C[C@@H]2C[C@H](C1)C[C@H](N1[C@@H]3CCC[C@H]1C[C@@H](n1c(=O)c(NCCP(=O)(O)O)nc4ccccc41)C3)C2 | 2.92 | 2.92 | –
C[C@@H]1C[C@@H]2C[C@H](C1)C[C@H](N1[C@@H]3CCC[C@H]1C[C@@H](n1c(=O)c(/C=C/P(=O)(O)O)nc4ccccc41)C3)C2 | 8.9 | 5.49 | Ki (Mu-type opioid receptor): 505 nM
CC1C[C@@H]2C[C@H](C1)C[C@H](N1[C@@H]3CCC[C@H]1C[C@@H](n1c(=O)c(P(=O)(O)OCOC(=O)c4ccccc4)nc4ccccc41)C3)C2 (stereo partly drawn) | – | 12.2 | –
O=c1c(P(=O)(O)O)nc2ccccc2n1[C@H]1C[C@H]2CCC[C@@H](C1)N2[C@H]1C[C@@H]2CCC[C@@H](C2)C1 | 19.3 | 7.51 | –
